Where two headings read alike, the source gives them in different places.
Columns and labels:
[1] = Microplate method; urea; from Aucamp 2005; cited from earlier work
[2] = 0.5 mg ml^−1 BSA, flow rate 10 μl/min, capillary
[3] = Capillary method, urea
Protocol: Samples were measured and averaged for 100 laser pulses. […] Error bars shown are standard deviations.

bovine serum albumin [BSA]
C1/2 (transition mid-point) [1]: 3.6 ± 0.2 M | mG [1]: 1.2 ± 0.2 kcal mol^−1 M^−1 | ΔGH2O [1]: 4.4 ± 0.8 kcal/mol | mid-point of the transition (urea concentration) [2]: 4.5 M | mG [3]: 1.9 ± 0.2 kcal mol^−1 M^−1 | ΔGH2O [3]: 7.0 ± 0.8 kcal/mol | C1/2 (transition mid-point) ([3]; 7.14 μM BSA, 50 mM Tris.HCl pH 7.2, 22° C.): 3.7 ± 0.2 M
